{"source": "paper PMC11876671", "about": "“Investigating blood–brain barrier penetration and neurotoxicity of natural products for central nervous system drug development” (Scientific Reports, 2025)", "assay": "in vitro", "conditions": "PAMPA, PAMPA-BBB Pe(10^-6 cm/sec)", "data": [{"compound": "COc1cc([C@@H]2c3cc4c(cc3[C@@H](O)[C@H]3COC(=O)[C@H]23)OCO4)cc(OC)c1O", "values": [{"measurement": "Papp", "result": 9.1, "unit": "×10⁻⁶ cm/s"}]}]}
